Consider one compound from ChEMBL document CHEMBL5214926, “Recent contribution of medicinally active 2-aminothiophenes: A privileged scaffold for drug discovery” (Eur J Med Chem, 2022).

A short description of this assay: Inhibition of CaCC (unknown origin) current potentiation. Set-up: species or system Homo sapiens.

`O=C(O)c1c(NC2=NCC(CBr)S2)sc2c1CCCC2` (stereo unspecified): the IC50 (usually the point on the concentration scale where inhibition reaches its midpoint) came to 19 µM.
